Data from US20250367182A1, “METHOD FOR INDUCING IN-SITU REGENERATION OF MAMMAL AND USE THEREOF” (INSTITUTE OF ZOOLOGY, CHINESE ACADEMY OF SCIENCES, priority 2022, published 2025).

These substances were tested on 2 mm diameter mouse ear hole (assay: 2 mm ear hole trauma mouse model (ear hole closure)). Conditions: 10-20 mg/kg, administered as CHX, measured 21 days after damage, n≥8.
Format: in vivo, C57BL/6 mice

| Substance | healing of 2 mm ear holes by ferroptosis / autophagy inhibitors |
| --- | --- |
| 3BDO | neither inhibitors of ferroptosis nor autophagy could promote the healing of the ear hole like CHX |
| Autophinib | neither inhibitors of ferroptosis nor autophagy could promote the healing of the ear hole like CHX |
| UAMC-3203 | neither inhibitors of ferroptosis nor autophagy could promote the healing of the ear hole like CHX |
